According to article PMC3956872 (PLoS ONE, 2014):

Tested on: O=C(O)[C@@H]1CCCN1
Assay: cells, lysate or membranes
Details: T. cruzi epimastigotes overexpressing TcAAAP069 (endogenous background uptake present), 28 °C, PBS, no D-proline, labelled compound

“TcAAAP069 (Trypanosoma cruzi strain CL Brener)” was tested, and the Km was 0.38 (± 0.05) mM.
